Our source for the logD values is the SangsterLogP compilation.

The nature of the data set: method code SF-GLC, from DOI: 10.1002/qsar.19850040403. Particulars: pH 13.0.

With `NC1CCCCC1`, the logD (as a rule, the decadic logarithm of the distribution of all forms, ionised or not, between an organic phase and buffer at a given pH) amounted to 1.49.
